Reference: patent publication US6984410B2, “Process for antibiotic coating of elements with interconnecting microcavities, elements thus coated as well as their usage” (Heraeus Kulzer GmbH & Co. KG, priority 2001, dated 2006)

What was measured:
[1] = found by Jurado Soler et al.; cited from earlier work

Row | Substance | Solubility in solvents such as methanol, ethanol and dimethyl sulfoxide [1] | Solubility in methanol, ethanol, dimethyl sulfoxide and N,N-dimethyl formamide
1 | Gentamicin pentakis dodecyl sulfate | soluble | 
2 | lincosamine dodecyl sulfate |  | can be dissolved
3 | lincosamine dodecyl sulfonate |  | can be dissolved
